{
  "sequences": {"note": "By UniProt entry, the sequences of proteins in these tests, tags left out. Where a name states a change or a piece, a line headed by the entry shows the natural chain unless it says otherwise.", "UniProt Q06187, whole entry": "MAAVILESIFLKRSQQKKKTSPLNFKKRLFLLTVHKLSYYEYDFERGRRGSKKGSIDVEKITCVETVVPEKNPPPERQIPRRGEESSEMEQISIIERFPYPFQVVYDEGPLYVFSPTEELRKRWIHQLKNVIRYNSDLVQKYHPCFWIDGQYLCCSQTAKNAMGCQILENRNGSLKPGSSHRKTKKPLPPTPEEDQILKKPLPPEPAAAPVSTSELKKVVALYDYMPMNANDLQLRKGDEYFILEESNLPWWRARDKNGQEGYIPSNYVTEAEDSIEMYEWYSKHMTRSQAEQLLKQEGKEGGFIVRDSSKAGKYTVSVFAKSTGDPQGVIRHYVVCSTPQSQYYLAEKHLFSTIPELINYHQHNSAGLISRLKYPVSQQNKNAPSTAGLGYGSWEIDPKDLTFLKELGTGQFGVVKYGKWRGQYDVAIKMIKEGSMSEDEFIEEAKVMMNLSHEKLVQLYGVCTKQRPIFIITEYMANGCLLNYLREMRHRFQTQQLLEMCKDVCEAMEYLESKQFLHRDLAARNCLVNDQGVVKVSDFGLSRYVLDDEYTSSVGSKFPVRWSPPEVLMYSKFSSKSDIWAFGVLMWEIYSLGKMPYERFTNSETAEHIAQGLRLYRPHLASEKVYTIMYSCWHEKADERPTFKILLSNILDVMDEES", "UniProt O00329, whole entry": "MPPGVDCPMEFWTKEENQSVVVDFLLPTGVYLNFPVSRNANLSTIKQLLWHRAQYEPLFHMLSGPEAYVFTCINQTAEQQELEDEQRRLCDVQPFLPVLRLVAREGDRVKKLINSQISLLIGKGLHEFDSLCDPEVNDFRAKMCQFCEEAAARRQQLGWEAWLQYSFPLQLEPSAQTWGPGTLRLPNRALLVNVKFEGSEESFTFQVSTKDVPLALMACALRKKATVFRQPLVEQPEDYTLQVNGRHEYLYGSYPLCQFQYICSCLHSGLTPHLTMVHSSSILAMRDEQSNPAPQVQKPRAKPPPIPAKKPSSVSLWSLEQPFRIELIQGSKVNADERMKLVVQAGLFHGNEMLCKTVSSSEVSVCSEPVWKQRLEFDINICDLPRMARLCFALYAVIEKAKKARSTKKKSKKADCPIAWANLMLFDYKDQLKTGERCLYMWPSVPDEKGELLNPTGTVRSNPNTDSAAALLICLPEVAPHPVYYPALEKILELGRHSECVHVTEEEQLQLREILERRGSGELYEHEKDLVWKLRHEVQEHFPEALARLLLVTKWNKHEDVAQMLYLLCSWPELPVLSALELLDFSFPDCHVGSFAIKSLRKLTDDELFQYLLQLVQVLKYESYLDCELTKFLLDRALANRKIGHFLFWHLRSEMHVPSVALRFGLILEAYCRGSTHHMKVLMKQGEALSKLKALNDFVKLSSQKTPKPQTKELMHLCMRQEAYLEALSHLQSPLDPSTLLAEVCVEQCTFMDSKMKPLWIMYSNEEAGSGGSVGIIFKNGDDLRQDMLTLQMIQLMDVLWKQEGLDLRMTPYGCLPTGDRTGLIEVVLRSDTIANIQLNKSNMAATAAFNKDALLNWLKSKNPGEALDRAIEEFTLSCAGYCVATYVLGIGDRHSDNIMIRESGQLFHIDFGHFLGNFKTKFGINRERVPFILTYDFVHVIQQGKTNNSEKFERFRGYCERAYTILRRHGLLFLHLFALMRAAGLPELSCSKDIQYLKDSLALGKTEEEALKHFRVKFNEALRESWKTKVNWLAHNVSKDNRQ", "UniProt P27986, whole entry partner": "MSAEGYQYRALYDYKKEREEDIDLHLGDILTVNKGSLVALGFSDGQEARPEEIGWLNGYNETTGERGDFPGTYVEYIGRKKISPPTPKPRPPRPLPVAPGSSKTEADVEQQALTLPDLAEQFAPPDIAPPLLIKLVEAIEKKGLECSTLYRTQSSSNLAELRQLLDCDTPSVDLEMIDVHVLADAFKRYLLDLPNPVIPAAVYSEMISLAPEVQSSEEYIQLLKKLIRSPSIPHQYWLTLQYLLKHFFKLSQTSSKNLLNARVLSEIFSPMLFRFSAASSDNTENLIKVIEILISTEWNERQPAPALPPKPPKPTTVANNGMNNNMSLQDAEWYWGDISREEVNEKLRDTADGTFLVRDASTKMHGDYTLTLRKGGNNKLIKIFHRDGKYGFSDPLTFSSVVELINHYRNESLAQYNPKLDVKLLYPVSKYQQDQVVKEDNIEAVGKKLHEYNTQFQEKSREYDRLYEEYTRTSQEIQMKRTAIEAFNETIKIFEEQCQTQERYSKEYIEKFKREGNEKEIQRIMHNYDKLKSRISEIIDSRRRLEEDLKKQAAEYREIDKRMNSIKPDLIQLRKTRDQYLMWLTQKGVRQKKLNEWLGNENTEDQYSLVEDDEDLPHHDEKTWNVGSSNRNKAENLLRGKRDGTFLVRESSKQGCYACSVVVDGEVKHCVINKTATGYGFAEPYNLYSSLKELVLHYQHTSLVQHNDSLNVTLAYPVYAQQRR"},
  "source": "patent US20210317140A1",
  "about": "“Heterocyclic Compounds and Methods of Use” (MEDIVATION TECHNOLOGIES, INC, priority 2013, published 2021)",
  "key": {"[1]": {"target": "BTK (Homo sapiens, UniProt Q06187)", "assay": "BTK kinase assay (HotSpot, 33P ATP)", "format": "biochemical", "conditions": "10 μM ATP, tested form: HCl"}, "[2]": {"target": "PI3Kδ (Homo sapiens, UniProt O00329)", "assay": "PI3Kδ kinase assay (HTRF, PIP3 detection)", "format": "biochemical", "conditions": "10 μM ATP, tested form: HCl"}},
  "data": [
    {"compound": "Cc1ccc(-c2nn(C3Cc4ccccc4C3)c3ncnc(N)c23)cc1O", "values": [
      {"measurement": "BTK @ 0.1 μM (% Inh)", "setting": "[1]; 0.1 μM compound", "value": 74.18, "unit": "% Inh"},
      {"measurement": "BTK @ 1 μM (% Inh)", "setting": "[1]; 1 μM compound", "value": 94.77, "unit": "% Inh"},
      {"measurement": "PI3Kδ @ 0.1 μM (% Inh)", "setting": "[2]; 0.1 μM compound", "value": 14.07, "unit": "% Inh"},
      {"measurement": "PI3Kδ @ 1 μM (% Inh)", "setting": "[2]; 1 μM compound", "value": 86.35, "unit": "% Inh"}
    ]}
  ]
}
